# Antibody variant affinities, Ab-14 heavy chain, assay 1

Source: Engelhart et al. 2022 (doi:10.1038/s41597-022-01779-4), MIT Lincoln Laboratory and A-Alpha Bio; data file from the FLAb repository.

The target is the same throughout: PDVDLGDISGINAS, from the HR2 region of SARS-CoV-2 spike.

Each scFv is VH, a (GGGGS)3 linker, VL, as in the parent Ab-14, and differs from it in the CDRs of the heavy chain only.
VH: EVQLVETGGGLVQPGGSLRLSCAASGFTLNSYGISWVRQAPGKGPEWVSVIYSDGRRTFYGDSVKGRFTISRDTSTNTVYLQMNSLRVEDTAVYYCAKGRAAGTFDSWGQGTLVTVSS
VL: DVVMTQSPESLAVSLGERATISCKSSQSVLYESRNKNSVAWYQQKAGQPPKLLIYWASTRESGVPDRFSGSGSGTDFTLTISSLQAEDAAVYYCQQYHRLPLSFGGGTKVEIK

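Phage display of a naive human antibody library on the peptide gave the parent. Variants in AAYL49 differ from the parent at up to three CDR positions; double and triple changes were sampled at random. The scFvs were displayed on barcoded MATa yeast, the peptide on MATalpha yeast. Binding brings cells together so that they mate, and sequencing counts the barcode pairs among the diploids. Scores were corrected for input abundance and mapped to Kd with protein pairs of known affinity run in the same pool. Mating was done three times.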

Variants are written as CDR1, CDR2 and CDR3 of the heavy chain (limits as in the source). Parent: GFTLNSYGIS, VIYSDGRRTFYGDSVK, GRAAGTFDS.
All variants listed here change N30 of the VH, counted from its first residue.
Affinities are written as log10 Kd with Kd in nM; a lower number is a better binder.
"nd" means that the variant was in the library but no mating with the target was seen in that replicate; the authors take this as a sign of poor binding, and no number exists.

The variant GFTLPSYGIS | VIYSDGRRTFYGDSVK | DRAAGTCDS showed nd, nd, nd. The variant GFTECSYGIS | VIYSDGRRTFYGDDVK | GRAAGTFDS showed 3.80, nd, nd. The variant GFTLFAYGIS | VIYSDGRRTFYGDFVK | GRAAGTFDS gave nd, 2.99, nd. For GFTLCSYGIS | VIYSDGRRQFYGDSVK | GTAAGTFDS, the assay gave 3.82, 2.95, 3.25. With GFTLGSYGIS | VIYSDGRRTFYGDSVK | GRAAGTFDS the result was 1.41, 1.50, 1.50. The variant GFTLRSYGIS | VIYSDGRRTFYGDSVK | GLAAGTFDS gave 5.27, 4.05, 4.53. The variant GFTTTSYGIS | VIYSDGRRTFYGDSVK | GRAAGTWDS gave 3.31, 2.44, 2.85. For GFTLHSYWIS | VIYSDGCRTFYGDSVK | GRAAGTFDS, the assay gave nd, nd, 5.20. The variant GFTLDSYGIS | VINSIGRRTFYGDSVK | GRAAGTFDS showed nd, nd, nd.

For GCTLVSYGIS | MIYSDGRRTFYGDSVK | GRAAGTFDS, the assay gave 4.43, nd, nd. The variant GFTLTSYGIS | VIYSDGRRTFYGDSVK | GRAAGTFDS gave 0.93, 0.94, 0.86. With GLTLLSYGIS | VIYSDGRRTFYGDSVK | GRYAGTFDS the result was 1.40, 1.45, 1.46. The variant HFTLHSYGIS | VIYSDGRRTFYGDSVK | GRAAGAFDS showed nd, 3.48, nd. For GFTLSSYGIS | VVYSDGRRTFYGDSVK | GRAATTFDS, the assay gave nd, nd, nd. For GFTLHSYYIS | VIYDDGRRTFYGDSVK | GRAAGTFDS, the assay gave 4.07, 3.72, nd. For GFTLFSYGIS | VIYSDGRRTTYGDSVK | GRAAGTFIS, the assay gave nd, nd, 5.15. The variant GFTLDSYGIS | VIYSDGRRTLYGNSVK | GRAAGTFDS gave 1.86, 2.06, 2.06. The variant GFTLWSYGIS | VQYSDARRTFYGDSVK | GRAAGTFDS showed nd, nd, 3.03.

The variant GFTLMSYGIS | VIYSDQRRTFYGDSVK | GRAAGTFDS gave 6.00, 4.01, nd. For GFTLYSYGIS | VIYSDGRRTFYGDSKK | GRAQGTFDS, the assay gave nd, nd, nd. The variant GFTLVSYGIS | VIYSDARRTFYGDSVK | GRAAGTGDS gave nd, nd, nd. With GFTLYSYGHS | VIYSDGRRTFYGDSVK | GRAAETFDS the result was 3.49, nd, nd. For GFTLRSYGIS | VIYSDYRRTFYGDSVN | GRAAGTFDS, the assay gave 2.58, nd, 4.44. The variant GFTLMSYGIS | VIYSDGRRTFYGDSVK | GRAASTFDS showed nd, nd, nd. With QFTLDSYGIS | VIYSDGRRTFHGDSVK | GRAAGTFDS the result was nd, nd, nd. For GFTLPSYGIS | VIYSDGVRTFYGDSVK | GRAAGTFDS, the assay gave 2.30, 2.79, 2.61. For GFTLDSYGIS | VIYSDGRRTFYGDFVK | WRAAGTFDS, the assay gave nd, nd, 4.52.

The variant GFTLCSYGIS | VIYSMGRRTFYGDSVK | GRAAGTGDS gave nd, nd, nd. The variant GFTLRSYGIS | VIYSDGRRTFYGDSVK | GRAVGLFDS gave 0.36, 0.56, 0.87. The variant GFTLCSYGIS | VITSMGRRTFYGDSVK | GRAAGTFDS showed nd, nd, nd. The variant GFTLVSYGIS | VIYSDGRRTFYGDSVK | GRTAGTFAS showed 3.81, 3.29, 2.72. The variant GFTLYSYGIS | VIASDGRHTFYGDSVK | GRAAGTFDS gave nd, nd, nd. With GFTLKSYGIS | VIWSDGRRTFYGDSVK | GRPAGTFDS the result was nd, nd, nd. With GFTLFSYGIS | NIYSDGRRHFYGDSVK | GRAAGTFDS the result was nd, nd, nd. For GFTLASYGIS | VIYSDGRRTFYGDIVH | GRAAGTFDS, the assay gave nd, 4.38, 5.12. The variant GFTLCSYGIS | VIYSDGRQTFYGDSVK | GSAAGTFDS showed nd, nd, nd.

With GFVLSSYGIS | VIYSDGRRTFYGDSVK | GQAAGTFDS the result was 1.36, 2.06, 1.95. With GFTLISDGIS | VIYSDGRRTFYGDSVK | GRAAGTFDS the result was 5.54, 4.08, nd. The variant GFTLDSYYIS | VIYSDGLRTFYGDSVK | GRAAGTFDS gave 3.10, nd, nd. The variant GFTLASYGIS | VIYSDGRMTFYGDSVK | GRAAATFDS showed nd, nd, nd. With GFTLDCYGIS | VIYSDGRRTFYCDSVK | GRAAGTFDS the result was 1.83, 1.69, 1.87. The variant GFTPGSYGIS | VIYSDGRRTFYGDSVK | GRAAGTFDS showed nd, 3.25, 3.91. For GFTLTSYGIQ | VIYSDGRRTFYGDSSK | GRAAGTFDS, the assay gave nd, nd, nd.

From the list, the first 3 with no signal in any replicate:

For GFTLPSYGIS | VIYSDGRRTFYGDSVK | DRAAGTCDS, the assay gave nd, nd, nd.
For GFTLDSYGIS | VINSIGRRTFYGDSVK | GRAAGTFDS, the assay gave nd, nd, nd.
For GFTLSSYGIS | VVYSDGRRTFYGDSVK | GRAATTFDS, the assay gave nd, nd, nd.

Parent in this assay: reference entry 0.65, copy in this library 4.11 (one replicate of three).
As a blank, each scFv also met three strains without target: over library AAYL49, 15% of these pairings were detected, typically at 4.06 and seldom below 2.83.